The conditions of this data set: dynamic moisture sorption. The method, then:
Moisture sorption profiles were generated at 25° C. using an SGA-100 symmetrical gravimetric analyzer (TA Instrument, New Castle, Del.). The samples (5-20 mg) were exposed to 25% to 95% relative humidity (RH) at step size of 5% RH and from 95 to 99% RH at step size of 1% RH, with a maximum step time of 360 min. The equilibrium criteria were set to change of mass of less than 0.01% (w/w) for 5 min for each step. Nitrogen was used as the purge gas.

Turning to thiamine mononitrate, the “hygroscopic behaviour (in words)” value is on record as “practically non-hygroscopic”.

The values above are taken from patent publication US10717729B2, “Thiamine-organic acid salt” (Purdue Research Foundation, priority 2018, dated 2020).
